Assay: Ligand Concentrations, Single Dose, C57BL/6J Mice
From the text: Table printed on a drawing sheet, FIG. 9
Title: Ligand Concentrations, Single Dose, C57BL/6J Mice
The patent's description of the figure: FIG. 9.
First reader's note: Table is inset in a concentration-time plot; the plot legend gives the dose and route (10nmol/kg sc) for both substances.

[1] = C57BL/6J, mouse, in vivo, sc, 10 nmol/kg

## CC[C@H](C)[C@H](NC(=O)[C@H](Cc1ccccc1)NC(=O)[C@H](CCC(=O)O)NC(=O)[C@@H]1CCCCNC(=O)CC[C@H](NC(=O)[C@H](CC(=O)O)NC(=O)[C@H](CC(C)C)NC(=O)[C@H](Cc2ccc(O)cc2)NC(=O)[C@H](CCCCN)NC(=O)[C@H](CO)NC(=O)[C@H](Cc2ccc(O)cc2)NC(=O)[C@H](CC(=O)O)NC(=O)[C@H](CO)NC(=O)[C@@H](NC(=O)[C@H](Cc2ccccc2)NC(=O)[C@@H](NC(=O)CNC(=O)[C@H](CCC(N)=O)NC(=O)C(C)(C)NC(=O)[C@@H](N)Cc2c[nH]cn2)[C@@H](C)O)[C@@H](C)O)C(=O)N[C@@H](CCCCNC(=O)[C@H]2O[C@@H](OCCCCCCCCCCCCCCCCCC(=O)O)[C@H](O)[C@@H](O)[C@@H]2O)C(=O)N[C@@H](C)C(=O)N[C@@H](C)C(=O)N1)C(=O)N[C@@H](CCC(N)=O)C(=O)N[C@@H](Cc1c[nH]c2ccccc12)C(=O)N[C@@H](CC(C)C)C(=O)N[C@@H](CC(C)C)C(=O)N[C@@H](CCC(N)=O)C(=O)N[C@H](C(N)=O)[C@@H](C)O [ALT-801]
  AUC(0-inf): 2690 ng·h/mL
  Tmax: 8 h
[1]
  Cmax: 92 ng/mL
  half-life: 15 h
mouse, in vivo, sc
  MRT: 22 h
